Permeability data for macrocyclic peptides

Values of Townsend et al. 2020, doi:10.26434/chemrxiv.13335941.v1, as listed in CycPeptMPDB.

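The data file gives no further conditions (lipid, pH, time, direction or concentration), and values from different papers need not be comparable. Other peptides of the study may be missing here. Entries at the database's floor value (log10 P of -10) are not listed.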

PAMPA measures passive passage through an artificial lipid membrane.
Permeability is given as log10 of P in cm/s; higher (less negative) is more permeable.

structure (SMILES)	PAMPA (log10 cm/s)
CC(C)C[C@@H]1C(=O)N(C)[C@@H](CC(C)C)C(=O)N2CCC[C@@H]2C(=O)N(C)[C@H](CC(C)C)C(=O)N[C@@H](Cc2ccccc2)C(=O)N[C@@H](Cc2ccccc2)CC(=O)N1C	-5.38
CC(C)C[C@@H]1NC(=O)[C@@H](CC(C)C)N(C)C(=O)[C@H](C)N(C)C(=O)[C@H]2CCCN2C(=O)[C@H](Cc2ccccc2)NC(=O)[C@@H](CC(C)C)N(C)C(=O)[C@H]2CCCN2C1=O	-5.04
CC(C)C[C@@H]1NC(=O)CN(Cc2ccccc2)C(=O)[C@H](C)N(C)C(=O)[C@H]2CCCN2C(=O)[C@H](Cc2ccccc2)NC(=O)[C@H](CC(C)C)N(C)C(=O)[C@H]2CCCN2C1=O	-5.39
CC(C)C[C@@H]1NC(=O)[C@H](C)N(C)C(=O)[C@H]2CCCN2C(=O)[C@H](Cc2ccccc2)NC(=O)CN(Cc2ccccc2)C(=O)[C@@H]2CCCN2C(=O)[C@@H](CC(C)C)N(C)C1=O	-5.48
CC(C)C[C@@H]1C(=O)N(Cc2ccccc2)CC(=O)N2CCC[C@H]2C(=O)N(C)[C@H](CC(C)C)C(=O)N[C@@H](Cc2ccccc2)C(=O)N2CCC[C@H]2C(=O)N[C@H](C)C(=O)N1C	-6.03
CC(C)C[C@@H]1NC(=O)C[C@H](Cc2ccccc2)NC(=O)[C@@H]2CCCN2C(=O)[C@H](Cc2ccccc2)NC(=O)[C@@H](CC(C)C)N(C)C(=O)[C@H]2CCCN2C(=O)[C@H](CC(C)C)N(C)C1=O	-5.42
CC(C)C[C@@H]1C(=O)N(C)[C@@H](CC(C)C)C(=O)N2CCC[C@H]2C(=O)N(Cc2ccccc2)CC(=O)N[C@@H](Cc2ccccc2)C(=O)N2CCC[C@@H]2C(=O)N[C@H](C)C(=O)N1C	-5.79
CC(C)C[C@@H]1NC(=O)[C@H](CC(C)C)N(C)C(=O)[C@H](C)N(C)C(=O)[C@H](Cc2ccccc2)NC(=O)CN(Cc2ccccc2)C(=O)[C@@H]2CCCN2C1=O	-4.77
CC(C)C[C@@H]1NC(=O)[C@H](C)NC(=O)[C@H](Cc2ccccc2)NC(=O)[C@H](CC(C)C)N(C)C(=O)[C@H]2CCCN2C(=O)[C@@H](CC(C)C)NC1=O	-6.55
CC(C)C[C@@H]1NC(=O)C[C@H](Cc2ccccc2)NC(=O)[C@H](Cc2ccccc2)NC(=O)[C@@H](CC(C)C)NC(=O)[C@H]2CCCN2C(=O)[C@@H](CC(C)C)N(C)C1=O	-5.48
CC(C)C[C@@H]1C(=O)N(C)[C@@H](CC(C)C)C(=O)N2CCC[C@H]2C(=O)N(C)[C@H](CC(C)C)C(=O)N[C@@H](Cc2ccccc2)C(=O)N2CCC[C@@H]2C(=O)N[C@H](C)C(=O)N1C	-5.13
CC(C)C[C@@H]1NC(=O)[C@@H](C)N(C)C(=O)[C@H]2CCCN2C(=O)[C@H](Cc2ccccc2)NC(=O)[C@@H](CC(C)C)N(C)C(=O)[C@@H]2CCCN2C(=O)[C@H](CC(C)C)NC1=O	-5.29
CC(C)C[C@H]1NC(=O)C[C@H](Cc2ccccc2)NC(=O)[C@H]2CCCN2C(=O)[C@H](Cc2ccccc2)NC(=O)[C@H](CC(C)C)N(C)C(=O)[C@H]2CCCN2C(=O)CN(Cc2ccccc2)C1=O	-5.62
CC(C)C[C@@H]1NC(=O)[C@H]2CCCN2C(=O)[C@H](CC(C)C)N(C)C(=O)[C@H](CC(C)C)NC(=O)[C@@H](C)NC(=O)[C@H](Cc2ccccc2)NC1=O	-5.16